Reference: patent US7087623B2, “Thiazole and other heterocyclic ligands for mammalian dopamine, muscarinic and serotonin receptors and transporters, and methods of use thereof” (Sepracor Inc., priority 2001, dated 2006)

The chains behind the UniProt entries cited, without tags or fusion partners. Residues count along the entry.
UniProt P50406, whole entry: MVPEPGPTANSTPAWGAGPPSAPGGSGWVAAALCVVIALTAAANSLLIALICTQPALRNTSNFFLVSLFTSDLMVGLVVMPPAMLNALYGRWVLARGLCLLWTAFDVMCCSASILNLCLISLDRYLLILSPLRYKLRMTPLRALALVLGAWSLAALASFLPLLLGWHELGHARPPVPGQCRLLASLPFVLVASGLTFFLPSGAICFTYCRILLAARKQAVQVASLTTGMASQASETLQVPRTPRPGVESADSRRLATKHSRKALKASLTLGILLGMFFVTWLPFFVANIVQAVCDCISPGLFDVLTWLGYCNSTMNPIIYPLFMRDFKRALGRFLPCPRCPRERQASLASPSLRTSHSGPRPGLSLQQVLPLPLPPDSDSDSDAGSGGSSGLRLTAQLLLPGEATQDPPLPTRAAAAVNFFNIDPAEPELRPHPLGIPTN
UniProt P28335, 33-458 limits assumed: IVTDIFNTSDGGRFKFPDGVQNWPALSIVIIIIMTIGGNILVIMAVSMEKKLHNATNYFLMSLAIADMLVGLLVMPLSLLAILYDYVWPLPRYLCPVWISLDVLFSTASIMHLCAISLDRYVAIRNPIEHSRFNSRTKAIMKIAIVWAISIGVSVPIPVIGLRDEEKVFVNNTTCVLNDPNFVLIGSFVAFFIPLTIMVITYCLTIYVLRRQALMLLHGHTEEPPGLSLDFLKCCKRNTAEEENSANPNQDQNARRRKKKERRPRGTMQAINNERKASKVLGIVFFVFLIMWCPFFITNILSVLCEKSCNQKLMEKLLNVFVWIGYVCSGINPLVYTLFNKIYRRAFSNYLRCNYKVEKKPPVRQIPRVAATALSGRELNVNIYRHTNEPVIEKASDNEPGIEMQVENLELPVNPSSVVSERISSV
UniProt P28223, whole entry: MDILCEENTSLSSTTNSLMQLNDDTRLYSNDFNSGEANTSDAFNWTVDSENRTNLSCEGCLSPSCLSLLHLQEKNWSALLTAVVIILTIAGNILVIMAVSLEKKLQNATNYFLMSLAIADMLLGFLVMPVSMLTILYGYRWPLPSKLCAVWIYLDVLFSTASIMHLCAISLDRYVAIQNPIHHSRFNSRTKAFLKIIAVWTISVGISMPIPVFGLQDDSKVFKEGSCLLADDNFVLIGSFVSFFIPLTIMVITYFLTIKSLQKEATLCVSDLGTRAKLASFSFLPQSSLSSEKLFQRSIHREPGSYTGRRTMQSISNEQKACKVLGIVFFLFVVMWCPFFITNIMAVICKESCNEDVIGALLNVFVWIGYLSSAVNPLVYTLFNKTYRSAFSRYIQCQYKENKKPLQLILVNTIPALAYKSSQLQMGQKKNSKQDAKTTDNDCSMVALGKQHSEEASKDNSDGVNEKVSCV
UniProt P35462, whole entry: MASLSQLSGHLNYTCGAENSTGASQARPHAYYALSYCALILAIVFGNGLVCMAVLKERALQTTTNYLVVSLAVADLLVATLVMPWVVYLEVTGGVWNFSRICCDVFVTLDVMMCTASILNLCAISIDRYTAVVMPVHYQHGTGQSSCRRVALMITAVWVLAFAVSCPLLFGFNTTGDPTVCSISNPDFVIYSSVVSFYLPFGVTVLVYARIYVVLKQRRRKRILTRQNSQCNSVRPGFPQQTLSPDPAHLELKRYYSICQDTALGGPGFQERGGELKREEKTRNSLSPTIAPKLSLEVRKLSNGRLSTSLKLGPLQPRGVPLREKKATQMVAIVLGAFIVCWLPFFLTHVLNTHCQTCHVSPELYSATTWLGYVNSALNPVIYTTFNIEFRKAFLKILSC
UniProt P41595, whole entry: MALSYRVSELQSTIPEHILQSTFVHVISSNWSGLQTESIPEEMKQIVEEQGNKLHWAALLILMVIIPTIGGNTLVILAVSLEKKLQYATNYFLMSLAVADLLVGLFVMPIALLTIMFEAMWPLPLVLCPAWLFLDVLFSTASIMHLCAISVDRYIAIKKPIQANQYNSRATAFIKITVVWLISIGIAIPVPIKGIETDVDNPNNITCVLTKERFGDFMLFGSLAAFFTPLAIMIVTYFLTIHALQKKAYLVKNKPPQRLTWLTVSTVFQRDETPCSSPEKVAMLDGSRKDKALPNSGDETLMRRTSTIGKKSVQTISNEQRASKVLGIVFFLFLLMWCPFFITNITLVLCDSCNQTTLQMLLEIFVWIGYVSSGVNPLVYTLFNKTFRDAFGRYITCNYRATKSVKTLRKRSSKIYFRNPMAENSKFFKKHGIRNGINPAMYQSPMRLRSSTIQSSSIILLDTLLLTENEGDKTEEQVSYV

How the values were obtained:
[1] = target: human serotonin 5-HT6 receptor (Homo sapiens, UniProt P50406); experiment: Radioligand binding assay, human 5-HT6 receptors ([3H]LSD); conditions: read-out: IC50 (nM) 5-HT6, Example 16 table
[2] = target: human serotonin 5-HT2C receptor (Homo sapiens, UniProt P28335); experiment: Radioligand binding assay, human 5-HT2C receptors ([3H]Mesulergine); conditions: read-out: IC50 (nM) 5-HT2c, Example 16 table
[3] = target: human serotonin 5-HT2A receptor (Homo sapiens, UniProt P28223); experiment: Radioligand binding assay, human 5-HT2A receptors ([3H]Ketanserin); conditions: read-out: IC50 (nM) 5-HT2a, Example 16 table
[4] = target: human dopamine D3 receptor (Homo sapiens, UniProt P35462); conditions: read-out: IC50 (nM) Against Human D3 Receptors; Example 20 table
[5] = target: human serotonin 5-HT2B receptor (Homo sapiens, UniProt P41595); experiment: Radioligand binding assay, human 5-HT2B receptors ([3H]LSD); conditions: read-out: IC50 (nM) 5-HT2b, Example 16 table

## CN1CCC(c2nc(C3(c4ccccc4F)CCCCC3)cs2)CC1
[1]
  IC50: < 1000 nM
[2]
  IC50: < 1000 nM
[3]
  IC50: < 1000 nM
[4]
  IC50: < 1000 nM
[5]
  IC50: < 1000 nM

## CCN(CC)CCCNc1nc(C2(c3ccc(Cl)cc3)CCC2)cs1.O=C(O)CC(O)(CC(=O)O)C(=O)O [Compound 20, N′-{4-[1-(4-chlorophenyl)cyclobutyl]thiazol-2-yl}-N,N-diethylpropane-1,3-diamine citrate salt]
[1]
  IC50: > 1000 nM
[2]
  IC50: < 100 nM
[3]
  IC50: < 1000 nM
[4]
  IC50: < 1000 nM
[5]
  IC50: < 1000 nM

## CN1CCC(c2nc(C3(c4ccc(Cl)cc4)CCCC3)cs2)CC1
[1]
  IC50: < 1000 nM
[2]
  IC50: < 1000 nM
[3]
  IC50: < 1000 nM
[4]
  IC50: > 1000 nM
[5]
  IC50: < 1000 nM
